Test results taken from patent US20040053822A1, “Inducing cellular immune responses to mage2/3 using peptide and nucleic acid compositions” (priority 2002, published 2004).
Read-outs that look alike come from different tables or passages of the source.

Experiments:
HLA-A*0301 = HLA-A*0301 (Homo sapiens, UniProt P04439); test: Purified HLA class I peptide binding assay, A*0301; details: binding affinity, HLA-A3 supermotif-bearing peptides
[1] = tested on: A3-supertype alleles (A*0301, A*1101, A*3101, A*3301, and A*6801); test: A3-supertype cross-reactive binding (five alleles); parameters: species or system human
HLA-A*3101 = HLA-A*3101 (Homo sapiens, UniProt P04439, A270S/D185E/E176V/E277Q/F33T/G231S/G80R/H175R/I121M/I218V/I322F/K168Q/L300P/L318F/M331R/P217A/Q94H/R138Q/T323A/T345S/T97I/V358M); test: Purified HLA class I peptide binding assay, A*3101; details: binding affinity, HLA-A3 supermotif-bearing peptides
HLA-A*6801 = HLA-A*6801 (Homo sapiens, UniProt P04439, A269V/D185E/E176V/E277Q/E87N/F33Y/G231S/I121M/I166T/I218V/L180W/L300P/L318F/N151K/P208A/P217A/Q86R/R169H/T345S); test: Purified HLA class I peptide binding assay, A*6801; details: binding affinity, HLA-A3 supermotif-bearing peptides; read-out: A*6801 nM
HLA-A*2402 = HLA-A*2402 (Homo sapiens, UniProt P04439, D101N/D140Y/D185E/E176V/E190D/F33S/G103R/G107R/I119L/I121M/I306V/K335N/L105A/L180Q/L300P/N151K/N90K/Q86E/Q94H/R106L/R138H/R89G/T104I/T345S/V100E/W191G/Y123F); test: Purified HLA class I peptide binding assay, A*2402
HLA-A*1101 = HLA-A*1101 (Homo sapiens, UniProt P04439, A114D/D185E/E176A/F33Y/L180Q/S129P/T187R); test: Purified HLA class I peptide binding assay, A*1101
HLA-A*3301 = HLA-A*3301 (Homo sapiens, UniProt P04439, A270S/D185E/E176V/E277Q/E87N/F33T/G231S/H175R/I121M/I218V/I322F/K168Q/K210R/L300P/L318F/M331R/P217A/Q86R/Q94H/R138Q/T323A/T345S/T97I/V358M/Y195H); test: Purified HLA class I peptide binding assay, A*3301; details: binding affinity, HLA-A3 supermotif-bearing peptides
[2] = read-out: A*[…], A24 motif-bearing peptides, Table XXVIB
[3] = HLA-A24 motif-bearing peptides, Table XXVIa
[4] = binding affinity, HLA-A3 supermotif-bearing peptides

| No. of A3 Alleles Crossbound [1] | IC50 (HLA-A*3101) [nM] | IC50 (HLA-A*3301) [nM] | SMILES | further results |
| --- | --- | --- | --- | --- |
| 3 | 316 | – | CC[C@H](C)[C@H](NC(=O)[C@@H](NC(=O)[C@@H]1CCCN1C(=O)[C@H](Cc1ccccc1)NC(=O)[C@H](Cc1ccccc1)NC(=O)[C@@H](N)Cc1ccc(O)cc1)C(C)C)C(=O)N[C@@H](Cc1ccccc1)C(=O)N[C@@H](CO)C(=O)N[C@@H](CCCCN)C(=O)O | IC50 (HLA-A*0301): 5000 nM; IC50 (HLA-A*6801): 571 nM |
| – | – | – | CC(C)C[C@H](NC(=O)[C@@H](NC(=O)[C@H](CCCCN)NC(=O)[C@@H](NC(=O)[C@H](Cc1ccc(O)cc1)NC(=O)[C@@H](N)CO)C(C)C)C(C)C)C(=O)N[C@@H](Cc1c[nH]cn1)C(=O)N[C@@H](Cc1c[nH]cn1)C(=O)N[C@H](C(=O)N[C@@H](Cc1ccccc1)C(=O)O)[C@@H](C)O [Peptide 57.0088] | IC50 (HLA-A*2402; [2]): 34.3 nM |
| – | – | – | CC(C)C[C@H](NC(=O)[C@H](CC(=O)O)NC(=O)[C@@H]1CCCN1C(=O)[C@H](Cc1ccc(O)cc1)NC(=O)[C@@H](N)[C@@H](C)O)C(=O)N[C@@H](CCC(=O)O)C(=O)N[C@@H](CO)C(=O)N[C@@H](CCC(=O)O)C(=O)N[C@@H](Cc1ccccc1)C(=O)O | IC50 (HLA-A*2402; [3]): 218 nM |
| 3 | – | – | CSCC[C@H](NC(=O)[C@@H](N)CO)C(=O)N[C@@H](CC(C)C)C(=O)N[C@@H](CCC(=O)O)C(=O)N[C@H](C(=O)N[C@@H](Cc1ccccc1)C(=O)N[C@@H](CCC(=O)O)C(=O)NCC(=O)N[C@@H](CCCNC(=N)N)C(=O)O)C(C)C | IC50 (HLA-A*0301): 5500 nM |
| 5 | 62 | 88 | CC[C@H](C)[C@H](NC(=O)[C@@H](NC(=O)[C@@H](NC(=O)[C@H](CO)NC(=O)[C@H](Cc1ccccc1)NC(=O)[C@@H](NC(=O)[C@@H](N)CO)C(C)C)[C@@H](C)O)[C@@H](C)O)C(=O)N[C@@H](CC(N)=O)C(=O)N[C@@H](CCCNC(=N)N)C(=O)O | IC50 (HLA-A*1101; [4]): 6.3 nM; IC50 (HLA-A*6801): 6.7 nM |
| – | – | – | CC[C@H](C)[C@H](N)C(=O)N[C@@H](CCSC)C(=O)N1CCC[C@H]1C(=O)N[C@@H](CCCCN)C(=O)N[C@@H](C)C(=O)NCC(=O)N[C@@H](CC(C)C)C(=O)N[C@@H](CC(C)C)C(=O)N[C@H](C(=O)N[C@H](C(=O)O)[C@@H](C)CC)[C@@H](C)CC | IC50 (HLA-A*2402; [3]): 240 nM |
| – | – | – | CC(C)C[C@H](NC(=O)[C@H](CCC(=O)O)NC(=O)[C@@H](NC(=O)[C@H](Cc1ccc(O)cc1)NC(=O)[C@@H](N)CCCCN)C(C)C)C(=O)N[C@H](C(=O)N[C@@H](Cc1c[nH]cn1)C(=O)N[C@@H](Cc1ccccc1)C(=O)N[C@@H](Cc1ccccc1)C(=O)O)C(C)C [Peptide 57.0061] | IC50 (HLA-A*2402; A24 motif-bearing peptides, Table XXVIB): 7.1 nM |
| 3 | > 10000 | > 10000 | CC(C)C[C@H](NC(=O)[C@H](CC(C)C)NC(=O)[C@H](CC(C)C)NC(=O)[C@H](Cc1ccccc1)NC(=O)[C@H](Cc1c[nH]cn1)NC(=O)[C@@H](NC(=O)[C@@H](N)CC(C)C)C(C)C)C(=O)N[C@@H](CCCCN)C(=O)O | IC50 (HLA-A*1101; [4]): 40 nM |
| – | – | – | CC(C)C[C@H](NC(=O)[C@@H]1CCCN1C(=O)[C@@H]1CCCN1C(=O)[C@H](Cc1ccc(O)cc1)NC(=O)[C@@H](N)CO)C(=O)N[C@@H](Cc1c[nH]cn1)C(=O)N[C@@H](CCC(=O)O)C(=O)N[C@@H](Cc1c[nH]c2ccccc12)C(=O)O [Peptide 52.0078] | IC50 (HLA-A*2402; [2]): 286 nM |
| – | – | – | CC[C@H](C)[C@H](NC(=O)[C@@H](NC(=O)[C@@H]1CCCN1C(=O)[C@H](Cc1ccccc1)NC(=O)[C@H](Cc1ccccc1)NC(=O)[C@H](Cc1ccc(O)cc1)NC(=O)[C@@H](N)CCC(N)=O)C(C)C)C(=O)N[C@@H](Cc1ccccc1)C(=O)O | IC50 (HLA-A*2402; [3]): 100 nM |
| 3 | > 10000 | > 10000 | CC[C@H](C)[C@H](NC(=O)[C@@H](NC(=O)[C@H](C)N)C(C)C)C(=O)N[C@@H](CCC(=O)O)C(=O)N[C@H](C(=O)N[C@@H](CO)C(=O)N[C@@H](Cc1ccc(O)cc1)C(=O)N[C@H](C(=O)N[C@@H](CCCCN)C(=O)O)C(C)C)[C@@H](C)O | IC50 (HLA-A*1101; [4]): 63 nM |

| SMILES | No. of A3 Alleles Crossbound [1] | IC50 (HLA-A*3101) [nM] | IC50 (HLA-A*3301) [nM] | further results |
| --- | --- | --- | --- | --- |
| CC[C@H](C)[C@H](NC(=O)[C@@H](NC(=O)[C@@H]1CCCN1C(=O)[C@H](Cc1ccccc1)NC(=O)[C@@H](NC(=O)[C@@H](N)Cc1ccc(O)cc1)C(C)C)C(C)C)C(=O)N[C@@H](Cc1ccccc1)C(=O)N[C@@H](CO)C(=O)N[C@@H](CCCNC(=N)N)C(=O)O | – | 6 | 13 | IC50 (HLA-A*1101): 2.6 nM |
